From patent US20240301043A1 (Q32 BIO, published 2024)

Key:
human C3d [1] = target: T1, human C3d (human, UniProt P01024, in part); assay: ELISA, human C3d coated on plate
T1 construct: domain: C3d; also called C3d antigen

human C3d [2] = target: T1, human C3d; assay: SPR (Biacore 3000), human C3d amine-coupled to CM5 chip, construct as analyte

EC50 (human C3d [1]) [nM] | Kd (human C3d [2]) [nM] | Binder
0.074 | 11.9 | Exemplary Fusion Construct 97 (other) heavy: QVQLVQSGAEVKKPGASVKVSCKASGYTFTNYYINWVRQAPGQGLEWMGVINPYSGGTSYNQKFKGRVTMTVDTSTSTAYMELSSLRSEDTAVYFCSSPYWGQGTLVTVSSASTKGPSVFPLAPCSRSTSESTAALGCLVKDYFPEPVTVSWNSGALTSGVHTFPAVLQSSGLYSLSSVVTVPSSSLGTKTYTCNVDHKPSNTKVDKRVESKYGPPCPPCPAPEFEGGPSVFLFPPKPKDTLMISRTPEVTCVVVDVSQEDPEVQFNWYVDGVEVHNAKTKPREEQFNSTYRVVSVLTVLHQDWLNGKEYKCKVSNKGLPSSIEKTISKAKGQPREPQVYTLPPSQEEMTKNQVSLTCLVKGFYPSDIAVEWESNGQPENNYKTTPPVLDSDGSFFLYSRLTVDKSRWQEGNVFSCSVLHEALHSHYTQKSLSLSLGGGGGSGGGGSEDCNELPPRRNTEILTGSWSDQTYPEGTQAIYKCRPGYRSLGNVIMVCRKGEWVALNPLRKCQKRPCGHPGDTPFGTFTLTGGNVFEYGVKAVYTCNEGYQLLGEINYRECDTDGWTNDIPICEVVKCLPVTAPENGKIVSSAMEPDREYHFGQAVRFVCNSGYKIEGDEEMHCSDDGFWSKEKPKCVEISCKSPDVINGSPISQKIIYKENERFQYKCNMGYEYSERGDAVCTESGWRPLPSCEEKSCDNPYIPNGDYSPLRIKHRTGDEITYQCRNGFYPATRGNTAKCTSTGWIPAPRCTLK light: DVVMTQSPLSLPVTLGQPASISCKSSQSLLDSDGKTYLNWFQQRPGQSPRRLIYLVSKLDSGVPDRFSGSGSGTDFTLKISRVEAEDVGVYYCWQGTHFPRTFGGGTKVEIKRTVAAPSVFIFPPSDEQLKSGTASVVCLLNNFYPREAKVQWKVDNALQSGNSQESVTEQDSKDSTYSLSSTLTLSKADYEKHKVYACEVTHQGLSSPVTKSFNRGEC
0.061 |  | Exemplary Fusion Construct 146 (other, Order heavy chain, linker, modulator follows claim 321 (2)) heavy: QVQLVQSGAEVKKPGASVKVSCKASGYTFTNYYINWVRQAPGQGLEWMGVINPYSGGTSYNQKFKGRVTMTVDTSTSTAYMELSSLRSEDTAVYFCSSPYWGQGTLVTVSSASTKGPSVFPLAPCSRSTSESTAALGCLVKDYFPEPVTVSWNSGALTSGVHTFPAVLQSSGLYSLSSVVTVPSSSLGTKTYTCNVDHKPSNTKVDKRVESKYGPPCPPCPAPEFEGGPSVFLFPPKPKDTLMISRTPEVTCVVVDVSQEDPEVQFNWYVDGVEVHNAKTKPREEQFNSTYRVVSVLTVLHQDWLNGKEYKCKVSNKGLPSSIEKTISKAKGQPREPQVYTLPPSQEEMTKNQVSLTCLVKGFYPSDIAVEWESNGQPENNYKTTPPVLDSDGSFFLYSRLTVDKSRWQEGNVFSCSVMHEALHNHYTQKSLSLSLGGGGGSGGGGSEDCNELPPRRNTEILTGSWSDQTYPEGTQAIYKCRPGYRSLGNVIMVCRKGEWVALNPLRKCQKRPCGHPGDTPFGTFTLTGGNVFEYGVKAVYTCNEGYQLLGEINYRECDTDGWTNDIPICEVVKCLPVTAPENGKIVSSAMEPDREYHFGQAVRFVCNSGYKIEGDEEMHCSDDGFWSKEKPKCVEISCKSPDVINGSPISQKIIYKENERFQYKCNMGYEYSERGDAVCTESGWRPLPSCEEKSCDNPYIPNGDYSPLRIKHRTGDEITYQCRNGFYPATRGNTAKCTSTGWIPAPRCTLK light: DVVMTQSPLSLPVTLGQPASISCKSSQSLLDSDGKTYLNWFQQRPGQSPRRLIYLVSKLDSGVPDRFSGSGSGTDFTLKISRVEAEDVGVYYCWQGTHFPRTFGGGTKVEIKRTVAAPSVFIFPPSDEQLKSGTASVVCLLNNFYPREAKVQWKVDNALQSGNSQESVTEQDSKDSTYSLSSTLTLSKADYEKHKVYACEVTHQGLSSPVTKSFNRGEC
0.06 | 38.9 | Exemplary Fusion Construct 135 (other) heavy: QHQLVQSGAEVKKPGASVKVSCKASGYTFHNYYINWVRQAPGQGLEWMGVINPYSGGTSYNQKFKGRVTMTVDHSTSTAYMELSSLRSEDTAVYFCSSPYWGQGTLVTVSSASTKGPSVFPLAPCSRSTSESTAALGCLVKDYFPEPVTVSWNSGALTSGVHTFPAVLQSSGLYSLSSVVTVPSSSLGTKTYTCNVDHKPSNTKVDKRVESKYGPPCPPCPAPEFEGGPSVFLFPPKPKDTLMISRTPEVTCVVVDVSQEDPEVQFNWYVDGVEVHNAKTKPREEQFNSTYRVVSVLTVLHQDWLNGKEYKCKVSNKGLPSSIEKTISKAKGQPREPQVYTLPPSQEEMTKNQVSLTCLVKGFYPSDIAVEWESNGQPENNYKTTPPVLDSDGSFFLYSRLTVDKSRWQEGNVFSCSVLHEALHSHYTQKSLSLSLGGGGGSGGGGSEDCNELPPRRNTEILTGSWSDQTYPEGTQAIYKCRPGYRSLGNVIMVCRKGEWVALNPLRKCQKRPCGHPGDTPFGTFTLTGGNVFEYGVKAVYTCNEGYQLLGEINYRECDTDGWTNDIPICEVVKCLPVTAPENGKIVSSAMEPDREYHFGQAVRFVCNSGYKIEGDEEMHCSDDGFWSKEKPKCVEISCKSPDVINGSPISQKIIYKENERFQYKCNMGYEYSERGDAVCTESGWRPLPSCEEKSCDNPYIPNGDYSPLRIKHRTGDEITYQCRNGFYPATRGNTAKCTSTGWIPAPRCTLK light: DVVMTQSPLSLPVTLGQPASISCKSSQSLLDSDGKTYLNWFQQRPGQSPRRLIYLVSKLDSGVPDRFSGSGSGTDFTLKISRVEAEDVGVYYCWQGTHFPRTFGGGTKVEIKRTVAAPSVFIFPPSDEQLKSGTASVVCLLNNFYPREAKVQWKVDNALQSGNSQESVTEQDSKDSTYSLSSTLTLSKADYEKHKVYACEVTHQGLSSPVTKSFNRGEC
